Results published in ChEMBL document CHEMBL5096162, “A review on ferulic acid and analogs based scaffolds for the management of Alzheimer's disease” (Eur J Med Chem, 2021).

Assay: Antioxidant activity assessed as trolox equivalent of ORAC radical scavenging activity by ORAC-FL assay
Format: functional

For `COc1cc(/C=C/C(=O)O)ccc1O` [FERULATE], the Activity was 3.74 equiv.
